Here are results for three compounds from ChEMBL document CHEMBL3414517, “Synthesis and structure-activity relationship study of a new series of selective σ(1) receptor ligands for the treatment of pain: 4-aminotriazoles” (J Med Chem, 2015).

Amino acid sequences for entries named in this document (tags omitted).
UniProt Q99720, whole entry: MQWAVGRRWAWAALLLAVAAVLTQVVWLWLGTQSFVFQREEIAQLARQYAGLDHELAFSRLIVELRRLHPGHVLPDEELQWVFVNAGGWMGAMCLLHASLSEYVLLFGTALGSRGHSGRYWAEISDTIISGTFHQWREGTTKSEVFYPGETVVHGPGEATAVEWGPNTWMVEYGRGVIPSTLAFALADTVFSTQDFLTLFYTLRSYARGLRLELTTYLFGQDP

The assay has as its target Sigma non-opioid intracellular receptor 1 (Homo sapiens, UniProt Q99720). Description: Displacement of [3H](+)-pentazocine from human sigma 1 receptor transfected in HEK293 cells after 120 mins by liquid scintillation counting. Type of assay: cell-based. In general terms: In a radioligand displacement assay an active substance lowers the binding of a labelled ligand.
As usually defined, the Ki is the dissociation constant of the complex between target and ligand, obtained from inhibition or displacement. Lower therefore signals higher affinity. The compound `CC(=O)N1CCN(CCNc2cn(-c3ccc(Cl)c(Cl)c3)nn2)CC1` yielded an inhibition constant Ki of 0.275 µM. That is a sub-micromolar value.

In the case of `CCN(CCN1CCOCC1)c1cn(-c2ccc(Cl)c(Cl)c2)nn1`, the inhibitory constant (Ki) was 0.216 µM.

For `CCN(CCN1CCOCC1)c1cn(C23CC4CC(CC(C4)C2)C3)nn1`, the inhibition constant (Ki) was 0.111 µM. This Ki is about 1.9-fold lower than that of the compound before.
